According to US11701360B2, “Composition for inducing differentiation and protection of neural stem cells and method for inducing neuro-regeneration using the same composition” (GENUV Inc., priority 2017, dated 2023):

Tested on: mouse adult neural stem cells
Conditions: 10 μM amyloid-beta; compound 10 μM; second day of culture

SMILES: O=C(NOC[C@H](O)CO)c1ccc(F)c(F)c1Nc1ccc(I)cc1F [PD0325901]
- cell protection and differentiation of NSC under amyloid-beta cytotoxicity: provided cell protection and induced the differentiation of NSC
